# Measurements reported in patent EP1202975B1, “SUBSTITUTED POLYCYCLIC ARYL AND HETEROARYL PYRAZINONES USEFUL FOR SELECTIVE INHIBITION OF THE COAGULATION CASCADE” (Pharmacia Corporation, priority 1999, dated 2000).
# Chains of the proteins cited; added tags and fusions are not shown. Residues count along the entry.
# UniProt P00761, 9-231: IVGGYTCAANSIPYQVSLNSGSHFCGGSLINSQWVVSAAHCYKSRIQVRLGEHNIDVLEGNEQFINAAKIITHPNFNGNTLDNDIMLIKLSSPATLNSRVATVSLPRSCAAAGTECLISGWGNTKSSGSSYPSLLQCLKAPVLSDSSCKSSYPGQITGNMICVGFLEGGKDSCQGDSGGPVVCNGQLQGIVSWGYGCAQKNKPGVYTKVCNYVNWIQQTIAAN
# Molecular target: Trypsin (type IX from porcine pancreas) (Sus scrofa, UniProt P00761)
# Conditions: for IC50: read-out: IC50 or % Inhibition Trpysin II (30 µM)
# [1] = cells given as a plain number (IC50)
IC50 [1] [nM],% Inhibition Trpysin II (100 µM) [%],Structure (SMILES),other results
530,,N=C(N)c1ccc(CNC(=O)Cn2c(-c3ccccc3)c(Cl)nc(NCCc3ccncc3)c2=O)cc1 [1471-13],
360,,N=C(N)c1ccc(CNC(=O)Cn2c(-c3cccc(Cl)c3)c(Cl)nc(NCc3ccccc3)c2=O)cc1 [1471-25],
> 30000,,CCc1c(Cl)nc(NCCc2cccc(Cl)c2)c(=O)n1CC(=O)NCc1ccc(C(=N)N)cc1 [1471-62],
23600,,CCCCNc1nc(Cl)c(-c2ccccc2)n(CC(=O)NCc2ccc(C(=N)N)cc2)c1=O [1517-35],
370,,CC(C)CCNc1nc(Cl)c(-c2ccccc2)n(CC(=O)NCc2ccc(C(=N)N)cc2)c1=O [1517-40],
590,,CC(C)(C)CCNc1nc(Cl)c(-c2ccccc2)n(CC(=O)NCc2ccc(C(=N)N)cc2)c1=O [1517-41],
200,,CC(C)CCNc1nc(Cl)c(-c2ccccc2)n(CC(=O)NCc2ccc(C(=N)N)cc2)c1=O [1522-14],
200,,CC(C)(C)CCNc1nc(Cl)c(-c2ccccc2)n(CC(=O)NCc2ccc(C(=N)N)cc2)c1=O [1522-18],
300,,CC(CNc1nc(Cl)c(-c2ccccc2)n(CC(=O)NCc2ccc(C(=N)N)cc2)c1=O)N(C)C (centres unmarked) [1522-23],
200,,CC(C)CNc1nc(Cl)c(-c2ccccc2)n(CC(=O)NCc2ccc(C(=N)N)cc2)c1=O [1522-34],
300,,N=C(N)c1ccc(CNC(=O)Cn2c(-c3ccccc3)c(Cl)nc(NC3CCCCCC3)c2=O)cc1 [1522-36],
300,,N=C(N)c1ccc(CNC(=O)Cn2c(-c3ccccc3)c(Cl)nc(NCCNc3ncc(C(F)(F)F)cc3Cl)c2=O)cc1 [1522-37],
300,,N=C(N)c1ccc(CNC(=O)Cn2c(-c3ccccc3)c(Cl)nc(NCCNc3ncccc3C(F)(F)F)c2=O)cc1 [1522-38],
300,,C[C@H](Nc1nc(Cl)c(-c2ccccc2)n(CC(=O)NCc2ccc(C(=N)N)cc2)c1=O)C1CCCCC1 [1522-43],
200,,N=C(N)c1ccc(CNC(=O)Cn2c(-c3ccccc3)c(Cl)nc(NC3CC4CCC3C4)c2=O)cc1 (centres unmarked) [1522-44],
200,,N=C(N)c1ccc(CNC(=O)Cn2c(-c3ccccc3)c(Cl)nc(NC3CCS(=O)(=O)C3)c2=O)cc1 (centres unmarked) [1522-46],
,,N=C(N)c1ccc(CNC(=O)Cn2c(-c3cccc(N)c3)c(Cl)nc(NC3CCC3)c2=O)c(F)c1 [1543-39],IC50 (cells without % sign: IC50): 50 nM
270,,N=C(N)c1ccc(CNC(=O)Cn2c(-c3ccccc3)c(Cl)nc(NCCc3ccncc3)c2=O)cc1 [Example 19],
320,,N=C(N)c1ccc(CNC(=O)Cn2c(-c3cccc(Cl)c3)c(Cl)nc(NCc3ccccc3)c2=O)cc1 [Example 23],
300,,N=C(N)NC/C=C\CNC(=O)Cn1c(-c2ccccc2)cnc(NCCc2ccccc2)c1=O [Example 37],
300,,CC(C)Nc1nc(Cl)c(-c2cccc(C(=O)O)c2)n(CC(=O)NCc2ccc(C(=N)N)cc2)c1=O [Example 65],
,,Cc1c(Cl)nc(NCCc2ccncc2)c(=O)n1CC(=O)NCCc1ccncc1 [Example E-0006],% Inhibition Trpysin II (100 µM): 1%

IC50 [1] [nM],% Inhibition Trpysin II (100 µM) [%],Structure (SMILES),other results
,,O=C(Cn1c(-c2ccccc2)c(Cl)nc(NCc2ccccc2)c1=O)NCCc1ccncc1 [Example E-0009],% Inhibition Trpysin II (100 µM): 1%
,,O=C(Cn1c(-c2ccccc2)c(Cl)nc(NCCc2cccnc2)c1=O)NCCc1ccncc1 [Example E-0013],% Inhibition Trpysin II (100 µM): 1%
,1,O=C(Cn1c(-c2ccc(Cl)cc2)c(Cl)nc(NCc2ccccc2)c1=O)NCCc1ccncc1 [Example E-0017],
,4,O=C(Cn1c(-c2ccc(Cl)cc2)c(Cl)nc(NCCc2ccccc2)c1=O)NCCc1ccncc1 [Example E-0018],
,2,O=C(Cn1c(-c2ccc(Cl)cc2)c(Cl)nc(NCCc2cccc(Cl)c2)c1=O)NCCc1ccncc1 [Example E-0019],
,4,O=C(Cn1c(-c2ccc(Cl)cc2)c(Cl)nc(NCCc2ccc(Cl)cc2)c1=O)NCCc1ccncc1 [Example E-0020],
,5,O=C(Cn1c(-c2ccc(Cl)cc2)c(Cl)nc(NCCc2cccnc2)c1=O)NCCc1ccncc1 [Example E-0021],
,2,O=C(Cn1c(-c2ccc(Cl)cc2)c(Cl)nc(NCCc2ccncc2)c1=O)NCCc1ccncc1 [Example E-0022],
,1,O=C(Cn1c(-c2ccc(Cl)cc2)c(Cl)nc(NCCN2CCOCC2)c1=O)NCCc1ccncc1 [Example E-0023],
,1,O=C(Cn1c(-c2ccc(Cl)cc2)c(Cl)nc(NCc2ccncc2)c1=O)NCCc1ccncc1 [Example E-0024],
,3,O=C(Cn1c(-c2ccc(Cl)cc2)c(Cl)nc(NCc2ccccc2)c1=O)NCCc1ccncc1 [Example E-0025],
,3,O=C(Cn1c(-c2ccc(Cl)cc2)c(Cl)nc(NCCc2ccccc2)c1=O)NCCc1ccncc1 [Example E-0026],
,3,O=C(Cn1c(-c2ccc(Cl)cc2)c(Cl)nc(NCCc2ccc(Cl)cc2)c1=O)NCCc1ccncc1 [Example E-0028],
,2,O=C(Cn1c(-c2ccc(Cl)cc2)c(Cl)nc(NCCc2cccnc2)c1=O)NCCc1ccncc1 [Example E-0029],
,4,O=C(Cn1c(-c2ccc(Cl)cc2)c(Cl)nc(NCCc2ccncc2)c1=O)NCCc1ccncc1 [Example E-0030],
,3,O=C(Cn1c(-c2ccc(Cl)cc2)c(Cl)nc(NCc2ccncc2)c1=O)NCCc1ccncc1 [Example E-0032],
,3,COc1ccc(-c2c(Cl)nc(NCCc3ccccc3)c(=O)n2CC(=O)NCCc2ccncc2)cc1 [Example E-0034],
,2,COc1ccc(-c2c(Cl)nc(NCCc3cccc(Cl)c3)c(=O)n2CC(=O)NCCc2ccncc2)cc1 [Example E-0035],
,0,COc1ccc(-c2c(Cl)nc(NCCc3ccc(Cl)cc3)c(=O)n2CC(=O)NCCc2ccncc2)cc1 [Example E-0036],
,0,O=C(Cn1c(-c2ccc(-c3ccccc3)cc2)c(Cl)nc(NCc2ccccc2)c1=O)NCCc1ccncc1 [Example E-0049],
,0,O=C(Cn1c(-c2ccc(-c3ccccc3)cc2)c(Cl)nc(NCCc2ccccc2)c1=O)NCCc1ccncc1 [Example E-0050],
,0,O=C(Cn1c(-c2ccc(-c3ccccc3)cc2)c(Cl)nc(NCCc2ccc(Cl)cc2)c1=O)NCCc1ccncc1 [Example E-0052],

IC50 [1] [nM],% Inhibition Trpysin II (100 µM) [%],Structure (SMILES),other results
,6,O=C(Cn1c(-c2cccc(Cl)c2)c(Cl)nc(NCc2ccccc2)c1=O)NCCc1ccncc1 [Example E-0073],
,8,O=C(Cn1c(-c2cccc(Cl)c2)c(Cl)nc(NCc2ccccc2)c1=O)NCCc1cccnc1 [Example E-0074],
,10,O=C(Cn1c(-c2cccc(Cl)c2)c(Cl)nc(NCCc2ccccc2)c1=O)NCCc1ccncc1 [Example E-0076],
,7,O=C(Cn1c(-c2cccc(Cl)c2)c(Cl)nc(NCCc2ccccc2)c1=O)NCCc1cccnc1 [Example E-0077],
,5,O=C(Cn1c(-c2cccc(Cl)c2)c(Cl)nc(NCCc2cccc(Cl)c2)c1=O)NCCc1cccnc1 [Example E-0080],
,3,O=C(Cn1c(-c2cccc(Cl)c2)c(Cl)nc(NCCc2ccc(Cl)cc2)c1=O)NCCc1ccncc1 [Example E-0082],
,6,O=C(Cn1c(-c2cccc(Cl)c2)c(Cl)nc(NCCc2ccc(Cl)cc2)c1=O)NCCc1cccnc1 [Example E-0083],
,9,O=C(Cn1c(-c2cccc(Cl)c2)c(Cl)nc(NCc2ccccc2)c1=O)NCCc1ccncc1 [Example E-0085],
,9,O=C(Cn1c(-c2cccc(Cl)c2)c(Cl)nc(NCCc2ccccc2)c1=O)NCCc1ccncc1 [Example E-0088],
,8,O=C(Cn1c(-c2cccc(Cl)c2)c(Cl)nc(NCCc2ccccc2)c1=O)NCCc1cccnc1 [Example E-0089],
,8,O=C(Cn1c(-c2cccc(Cl)c2)c(Cl)nc(NCCc2cccc(Cl)c2)c1=O)NCCc1ccncc1 [Example E-0091],
,9,O=C(Cn1c(-c2cccc(Cl)c2)c(Cl)nc(NCCc2cccc(Cl)c2)c1=O)NCCc1cccnc1 [Example E-0092],
,7,O=C(Cn1c(-c2cccc(Cl)c2)c(Cl)nc(NCCc2ccc(Cl)cc2)c1=O)NCCc1ccncc1 [Example E-0094],
,9,O=C(Cn1c(-c2cccc(Cl)c2)c(Cl)nc(NCCc2ccc(Cl)cc2)c1=O)NCCc1cccnc1 [Example E-0095],
,9,COc1ccc(-c2c(Cl)nc(NCCc3ccc(Cl)cc3)c(=O)n2CC(=O)NCCc2ccncc2)cc1 [Example E-0106],
,,O=C(Cn1c(-c2ccc(-c3ccccc3)cc2)c(Cl)nc(NCCc2cccc(Cl)c2)c1=O)NCCc1cccnc1 [Example E-0116],% Inhibition Trpysin II (100 µM): 10%
,9,O=C(Cn1c(-c2ccc(-c3ccccc3)cc2)c(Cl)nc(NCCc2ccc(Cl)cc2)c1=O)NCCc1ccncc1 [Example E-0118],
,,O=C(Cn1c(-c2ccc(-c3ccccc3)cc2)c(Cl)nc(NCCc2ccc(Cl)cc2)c1=O)NCCc1cccnc1 [Example E-0119],% Inhibition Trpysin II (100 µM): 10%
100,,CC(C)Nc1nc(Cl)c(-c2cc(N)ccc2F)n(CC(=O)NCc2ccc(C(=N)N)cc2F)c1=O [compound 73],
150,,CC(C)Nc1nc(Cl)c(-c2ccc(Cl)nc2)n(CC(=O)NCc2ccc(C(=N)N)cc2F)c1=O [compound 74],
40,,CC(C)Nc1nc(Cl)c(-c2cccnc2)n(CC(=O)NCc2ccc(C(=N)N)cc2)c1=O [compound 75],
1130,,N=C(N)c1ccc(CNC(=O)Cn2c(-c3cccc([N+](=O)[O-])c3)c(Cl)nc(NCCc3ccccc3)c2=O)cc1 [compound 77],

Structure (SMILES),IC50 [1] [nM],% Inhibition Trpysin II (100 µM) [%],other results
N=C(N)c1ccc(CNC(=O)Cn2c(-c3ccc(-c4ccccc4)cc3)c(Cl)nc(NCCc3cccnc3)c2=O)cc1 [Example 21],2000,,
N=C(N)c1ccc(CNC(=O)Cn2c(-c3ccc(-c4ccccc4)cc3)c(Cl)nc(NCCc3ccc(Cl)cc3)c2=O)cc1 [Example 22],1700,,

# Where two headings read alike, the source gives them in different places.
